Screens from PubChem.
The list is not random: actives were taken first. Their share in the collection is about 2.8%.
esBAF inh: inhibitors of esBAF chromatin remodeling in mouse ES cells; Bmi1-luciferase knock-in reporter, 24 h; 100% = twice the neutral-well signal; reporter increase, % at 12.5 µM; actives 2% (n = 350,000); in the data active = activation above about 40%;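 also: 0% = median of the plate's neutral control wells and 100% = double that signal; a rise in the Bmi1 reporter signal indicates esBAF inhibition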
E-selectin induc: E-selectin induction on HUVECs. P16581. activation, % at 7.58 µM. HUVEC E-selectin immunofluorescence imaging; normalized: neutral wells 0, TNF-alpha wells 100. actives 0.37% (n = 260,000). AID 686992;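 active = mean E-selectin-positive cell signal at least 10% of the positive control, reached in at least 60% of replicates, without over 20% cell loss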
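Read-out: % PE-positive cells | Test system: HUVEC | Doses: One compound dose added by pin transfer | Buffer or medium: EGM-2 over gelatin coat | Signal: Immunofluorescence imaging | Benchmarks: TNF-alpha, DMSO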
PGC1a acetyl inh: lowers PGC1a acetylation signal in U2OS cells; AlphaScreen anti-acetyl-lysine; with virally co-expressed GCN5 acetyltransferase; inhibition, % at 15.6 µM; actives 0.17% (n = 350,000); AID 651687;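 active = every replicate shows inhibition of at least 40%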;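 also: 0% = neutral control wells and 100% = positive control wells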
Yeast UUG start: yeast start codon fidelity modulation | S. cerevisiae UUG-firefly luciferase reporter, luminescence/redox ratio | activity score, % at 18.7 µM | hit rate 0.13% among 350,000 | AID 602363;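 active means replicate mean at a twofold rise or more, about +100% in these data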;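 further: firefly luciferase made from a UUG start codon reports start codon fidelity; reporter light over untreated wells divided by growth signal over untreated wells; some hits fall short of that in this replicate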
PglD DTNB: blocks C. jejuni PglD acetyltransferase activity | purified PglD enzyme, DTNB colorimetric CoA detection | inhibition, % at 12.5 µM | actives 0.098% (n = 360,000) | AID 602405; in the data active = inhibition above about 16%, passing the limit was not always enough
C2C12 statin: suppression of simvastatin myotoxicity; C2C12 myotubes + simvastatin, ATP luminescence, 48 h; scaled: DMSO 0, geranylgeraniol control 100; rescue of ATP level, % at 7.49 µM; actives 0.78% (n = 330,000); AID 602340;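 active = mean ATP rescue above about 67%, or every replicate alone reaching that limit, limit read from the data, passing the limit was not always enough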;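 also: myotubes were challenged with 10 µM simvastatin during compound exposure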
The depositor's hits bear a star; x = not tested or not shown.

SMILES	esBAF inh	E-selectin induc	PGC1a acetyl inh	Yeast UUG start	PglD DTNB	C2C12 statin
N#Cc1sc2nc3c(c(-c4ccco4)c2c1N)CCCC3	-13	x	4	-25	-3	98*
COc1ccccc1Oc1ncnc2c1cnn2-c1ccccc1	73*	0	8	-10	-23	3
CCN(c1ccccc1)c1ncnc2c1cnn2-c1ccccc1	76*	0	14	-2	-2	-15
CC(C)NC(=O)Nc1ccc2c(c1)C(=O)N([C@H](C)CO)C[C@H](C)[C@H](CN(C)Cc1ccc3c(c1)OCO3)OCCCC[C@@H](C)O2	0	x	-3	-10	3	x
O=C(Nc1nnc(-c2ccc(F)cc2)s1)c1ccco1	46*	0	x	-22	0	2
COc1ccc(-c2nnc(N(C)C(=O)c3ccco3)s2)cc1OC	10	x	x	-10	1	23
Cc1cccc(N(C)S(=O)(=O)c2nnc(NC(=O)c3ccco3)s2)c1	-5	x	5	-9	0	-10
Cc1cccc(-c2nnc(NC(=O)c3ccco3)s2)c1	59*	0	-1	-20	-1	4
CN(C(=O)c1ccco1)c1nnc(-c2ccc(F)cc2)s1	58*	x	x	7	-4	3
C[C@@H]1CN([C@@H](C)CO)C(=O)c2cc(NC(=O)Cc3cn(C)c4ccccc34)ccc2O[C@H]1CN(C)S(=O)(=O)c1cccs1	0	x	-3	-8	9	111*
C[C@H](CO)N1C[C@H](C)[C@H](CN(C)S(=O)(=O)c2cccs2)Oc2ccc(NC(=O)Cc3cn(C)c4ccccc34)cc2C1=O	1	x	0	-10	0	104*
COC(=O)C[C@H]1C[C@@H]2c3cc(NC(=O)Nc4ccc(C(F)(F)F)cc4)ccc3O[C@@H]2[C@@H](CO)O1	-4	1	10	9	1	-16
Cc1cc(C)cc(NC(=O)c2sc3nc(C)cc(C)c3c2N)c1	70*	0	-1	-16	-9	-8
Cc1cc(C)c2c(N)c(C(=O)Nc3ccc(C)c(C)c3)sc2n1	-22	0	2	-17	1	-12
COc1cc(C2=NOC(C(=O)NCc3ccco3)C2)cc(OC)c1OC (stereo not drawn)	x	x	-37	-5	2	x
O=C(NCCc1cccs1)C1CC(c2ccc([N+](=O)[O-])cc2)=NO1 (stereo not drawn)	59*	0	8	-17	4	6
COc1cc(C2=NOC(C(=O)NCc3cccs3)C2)cc(OC)c1OC (stereo not drawn)	1	x	2	3	3	87*
COc1ccc(C2=NOC(C(=O)NCc3cccs3)C2)cc1 (stereo not drawn)	-3	x	-5	23	-4	97*
COc1ccc(S(=O)(=O)Nc2ccc3c(c2)C(=O)N([C@@H](C)CO)C[C@H](C)[C@@H](CN(C)C(=O)NC2CCCCC2)O3)cc1	-3	0	-3	x	-1	16
COc1ccc(-c2ccc3c(c2)O/C(=C\c2ccsc2)C3=O)cn1	45*	x	8	-6	-14	-3
CCOCCCNC(=O)c1ccc(/C=C2\Oc3ccccc3N(C)C2=O)cc1	72*	0	x	-1	4	-1
C=CCn1c(-c2ccc(OC)cc2)nc2ccccc21	41*	x	5	x	x	-6
CS(=O)(=O)N(CC(=O)NN=C1CCCCCC1)c1ccc(Oc2ccccc2)cc1	-8	x	x	-12	-2	0
CN1CCC(=NNC(=O)CN(c2ccc(Oc3ccccc3)cc2)S(C)(=O)=O)CC1	2	1	-6	-8	-2	110*
Cc1[nH]nc2c1/C(=N\O)CC(C)(C)C2	4	x	11	-7	2	101*

Continued.
SMILES	esBAF inh	E-selectin induc	PGC1a acetyl inh	Yeast UUG start	PglD DTNB	C2C12 statin
Cc1[nH]nc2c1C(=O)CC(C)(C)C2	0	x	-13	-13	-2	-11
C=CCOC(=O)C1=C(C)N=C2SCCC(=O)N2C1c1cccs1 (stereo not drawn)	0	x	-5	-22	5	110*
CCOC(=O)C1=C(C)N=C2SCCC(=O)N2C1c1sccc1C (stereo not drawn)	-1	x	-14	-12	-5	-4
C[C@@H]1CN([C@H](C)CO)C(=O)c2cc(C3=CCCCC3)cnc2O[C@H]1CN(C)C(=O)c1ccncc1	0	1	0	-7	3	-6
C[C@@H]1CN([C@H](C)CO)C(=O)c2cc(C#C[C@@H](C)O)cnc2O[C@H]1CN(C)C(=O)CN1CCOCC1	-3	x	9	4	2	13
COc1ccccc1NS(=O)(=O)c1c(C)[nH]c(C)c1C(=O)N1CCCC1	1	50*	-1	-22	0	0
O=c1c2[nH]c3ccccc3c2ncn1C1CCCCC1	62*	x	0	x	x	-2
COc1ccc(-c2nc3c4ccccc4[nH]c(=O)n3n2)cc1	46*	-1	-14	-13	3	12
Cc1ccccc1OCC(O)Cn1nnc2ccccc21 (stereo not drawn)	65*	x	-14	-21	-2	-1
CC(C(=O)NCC1CCCO1)n1cccc1C(=O)c1ccccc1 (stereo not drawn)	-4	x	0	0	-1	107*
CC(C(=O)NCc1ccc(Cl)cc1)n1cccc1C(=O)c1ccccc1 (stereo not drawn)	-7	x	1	18	0	25
CO[C@H]1O[C@H](CO)[C@@H](OC(=O)Nc2ccc3c(c2)OCO3)[C@H](OC(=O)Nc2ccccc2)[C@H]1OC(=O)Nc1ccccc1	x	x	-5	-8	0	x
O=C(NN=C1c2ccccc2-c2ccccc21)c1ccccc1Br	1	x	66*	-4	9	2
C[C@@H]1CN([C@@H](C)CO)C(=O)c2cc(NC(=O)Nc3cccc4ccccc34)ccc2O[C@@H](C)CCCCO[C@@H]1CN(C)C(=O)NC1CCCCC1	0	0	9	-1	0	51
C[C@H](CO)N1C[C@H](C)[C@@H](CN(C)C(=O)NC2CCCCC2)OCCCC[C@H](C)Oc2ccc(NC(=O)Nc3cccc4ccccc34)cc2C1=O	5	2	9	-7	5	122*
C[C@@H]1CCCCO[C@@H](CN(C)C(=O)Nc2cccc3ccccc23)[C@H](C)CN([C@H](C)CO)C(=O)c2cc(NC(=O)c3ccncc3)ccc2O1	5	0	-7	-8	-1	135*
C[C@@H]1CN([C@H](C)CO)C(=O)c2cc(NS(=O)(=O)c3ccccc3)ccc2O[C@@H](C)CCCCO[C@@H]1CN(C)C(=O)C1CCCCC1	8	0	5	2	-3	8
C[C@@H]1CCCCO[C@H](CN(C)C(=O)C2CCCCC2)[C@H](C)CN([C@H](C)CO)C(=O)c2cc(NS(=O)(=O)c3ccccc3)ccc2O1	7	0	-7	5	-2	89*

5 compounds drawn at random from those above:
SMILES	esBAF inh	E-selectin induc	PGC1a acetyl inh	Yeast UUG start	PglD DTNB	C2C12 statin
C[C@@H]1CN([C@H](C)CO)C(=O)c2cc(NS(=O)(=O)c3ccccc3)ccc2O[C@@H](C)CCCCO[C@@H]1CN(C)C(=O)C1CCCCC1	8	0	5	2	-3	8
C[C@@H]1CN([C@H](C)CO)C(=O)c2cc(C#C[C@@H](C)O)cnc2O[C@H]1CN(C)C(=O)CN1CCOCC1	-3	x	9	4	2	13
CC(C(=O)NCc1ccc(Cl)cc1)n1cccc1C(=O)c1ccccc1 (stereo not drawn)	-7	x	1	18	0	25
C[C@H](CO)N1C[C@H](C)[C@@H](CN(C)C(=O)NC2CCCCC2)OCCCC[C@H](C)Oc2ccc(NC(=O)Nc3cccc4ccccc34)cc2C1=O	5	2	9	-7	5	122*
C[C@@H]1CN([C@@H](C)CO)C(=O)c2cc(NC(=O)Nc3cccc4ccccc34)ccc2O[C@@H](C)CCCCO[C@@H]1CN(C)C(=O)NC1CCCCC1	0	0	9	-1	0	51
